Earlier results, collected in patent US20200360391A1, “Medicinal Composition for Treating Intractable Heart Disease” (Osaka University, priority 2016, published 2020).

Tests used:
rats = conditions: repeated oral administration in rats, duration per compound; cited from earlier work
[1] = human, in vivo; cited from earlier work

**Q.** Which “Dose at which toxic findings were observed” value (rats) does the source give for `Cn1c(=O)c2[nH]cnc2n(C)c1=O` [Compound H, Theophylline] here?
**A.** ≥ 37.5 mg/kg

**Q.** And the Abdominal pain cases [1]?
**A.** 1.49%

**Q.** And the Anorexia cases [1]?
**A.** 1.28%
